Like-named read-outs stand apart in the source and are kept apart here.
How the values were obtained:
Assay in all cases: competition with 125I-CPCR4 tracer on CXCR4-expressing cells
[1] = target: T1, human chemokine receptor type 4 (CXCR4) (human, UniProt P61073 1-352)
T1 construct: whole, on cells; also called CXCR4 receptor; CXCR4 chemokine receptor

Sequences of proteins named here, by UniProt entry; tags and fusion partners are left off.
UniProt P61073, whole entry: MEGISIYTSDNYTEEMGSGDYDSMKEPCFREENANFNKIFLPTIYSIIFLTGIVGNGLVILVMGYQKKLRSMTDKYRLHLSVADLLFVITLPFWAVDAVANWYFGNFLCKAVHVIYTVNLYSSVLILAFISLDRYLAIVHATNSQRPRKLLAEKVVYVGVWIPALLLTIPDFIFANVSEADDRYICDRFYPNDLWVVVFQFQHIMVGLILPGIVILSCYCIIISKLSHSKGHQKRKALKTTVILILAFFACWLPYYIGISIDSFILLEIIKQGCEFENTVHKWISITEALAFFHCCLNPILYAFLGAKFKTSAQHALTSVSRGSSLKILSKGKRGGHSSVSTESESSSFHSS

[2] = target: T1, human chemokine receptor type 4 (CXCR4); remark: listed apart in the source
[3] = target: T1, human chemokine receptor type 4 (CXCR4); remark: listed apart in the source

Row | IC50 [2] | Binder | other results
1 |  | YRRXAA (cyclic; D-Tyr1; Nal4, also called BL158) [cyc[D-Tyr-Arg-Arg-Nal-Ala-Ala]] | IC50 [1]: 114 nM
2 | 136 nM | YRRXG (cyclic; D-Tyr1; Nal4; (Me)Gly5, also called OD7) [cyc[D-Tyr-Arg-Arg-Nal-(Me)Gly]] | 
3 |  | YFRXG (cyclic; D-Tyr1; Nal4) [cyc[D-Tyr-Phe-Arg-Nal-Gly]] | IC50 [3]: 154 nM
4 | 247 nM | YRRXG (cyclic; (Me)D-Tyr1; Nal4, also called OD9) [cyc[(Me)D-Tyr-Arg-Arg-Nal-Gly]] | 
5 | 894 nM | YRRXG (cyclic; D-Tyr1; (Me)Nal4, also called OD5) [cyc[D-Tyr-Arg-Arg-(Me)Nal-Gly]] | 

— patent publication US20140100172A1 (MALLINCKRODT, published 2014)
